The values that follow are results of earlier work, collected in patent US20260248947A1, “Methods of Treating Cancer Using Anti-HER2 Antibody-Drug Conjugates and HER2 Kinase Inhibitors” (Seagen Inc., priority 2023, published 2026).

Series [1] has as its system HER2-low metastatic breast cancer. To be noted: heavily pretreated patients; cited from earlier work.
Series [2] deals with HER2+ locally advanced or metastatic breast cancer (LA/mBC). Conditions: subjects that progressed following taxane plus trastuzumab treatment; cited from earlier work.

In the case of trastuzumab deruxtecan [T-DXd], in series [1], the “improvement of median overall survival compared with standard single-agent chemotherapy” value is given as 6.6 months and the “improvement of median progression-free survival compared with standard single-agent chemotherapy” value is listed as 4.8 months. In series [2], the “overall response (either complete or partial response)” value is 79.7% and the “subjects alive without disease progression at 12 months” value is 75.8%.
